{"source": "patent US20130217681A1", "about": "“METHOD AND COMPOSITION FOR WEIGHT-GAIN MANAGEMENT” (TECHNION RESEARCH AND DEVELOPMENT FOUNDATION LTD., priority 2010, published 2013)", "details": "after 6 weeks of the trial", "data": [{"smiles": "Cc1cc2c(s1)Nc1ccccc1N=C2N1CCN(C)CC1", "note": "[olanzapine + placebo, olanzapine]", "values": [{"measurement": "triglyceride level, endpoint", "result": "117.6±58.5"}]}]}
